Source: patent US12570642B2, “GLP-IR modulating compounds” (Gilead Sciences, Inc., priority 2021, dated 2026)

Sequences of proteins named here, by UniProt entry; tags and fusion partners are left off. Residues count along the entry.
UniProt P43220, 24-463 limits assumed: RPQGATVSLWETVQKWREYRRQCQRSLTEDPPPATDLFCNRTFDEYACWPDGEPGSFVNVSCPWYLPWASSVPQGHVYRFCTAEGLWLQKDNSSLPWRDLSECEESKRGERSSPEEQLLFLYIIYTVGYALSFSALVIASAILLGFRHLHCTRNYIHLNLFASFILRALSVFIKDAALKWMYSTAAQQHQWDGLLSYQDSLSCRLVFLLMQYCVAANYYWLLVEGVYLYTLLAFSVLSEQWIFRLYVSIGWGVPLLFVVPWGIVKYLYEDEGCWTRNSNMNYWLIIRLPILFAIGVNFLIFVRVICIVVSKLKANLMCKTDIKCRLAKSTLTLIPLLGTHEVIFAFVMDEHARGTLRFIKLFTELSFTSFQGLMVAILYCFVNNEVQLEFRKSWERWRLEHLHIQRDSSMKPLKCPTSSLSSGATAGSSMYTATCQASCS

Target: GLP-1R (Homo sapiens, UniProt P43220)
Assay: GLP-1R Activation - cAMP Assay
Details: read-out: GLP-1R Activation - Assay EC50; cAMP increase in CHO cells stably expressing GLP-1R; each compound run on one of the two cAMP assays (Assay 1 or Assay 2, not specified)
Procedure: GLP-1R Activation—cAMP Assay 1
GLP-1R activation by compounds of the present disclosure were quantified by measuring cAMP increase in CHO cells stably expressing GLP-1R (MultiSpan product #C1267-1a). The cells were harvested and plated in growth medium (DMEM/F-12 (Corning product #10-090-CV) supplemented with 10% FBS (HyClone product #SH30071-03), penicillin/streptomycin (Corning product #30-002CI) and 10 μg/ml puromycin (Gibco product #A11138-03)) at 1,000 cells/well in a 384-well plate (Greiner product #781080). The cells were then incubated overnight at 37° C., 5% CO2. The next day, the medium was removed and the cells were washed with DPBS (Corning product #21-031-CM) before adding the assay medium (HBSS, Corning product #21-023-CV) with 20 mM Hepes (Gibco product #15630-080) and 0.1% BSA (Rockland Immunochemicals product #BSA-1000)). Following the medium change, the cells were incubated for 1 hour at 37° C., 5% CO2. The tested GLP-1 compound was added to the cells in a 10-point dose response followed by a 30 minutes incubation at 37° C., 5% CO2. cAMP concentration increase was then detected using Cisbio's cAMP Gs Dynamic Kit (product #62AM4PEC) according to the manufacturer's protocol. The response was plotted against the log of the agonist concentration and fitted to a sigmoidal equation to determine the EC50.

Cc1cc(Cc2nc3ccc(C(=O)O)cc3n2[C@@H]2COCC2(C)C)c(F)cc1-c1nc(OCc2ccc(C#N)cc2F)ccc1F
EC50: 0.068 nM
